Data taken from paper PMC3177597 (Bioorganic & medicinal chemistry letters, 2009).

Protein sequences, listed by entry. Tags and fused reporters are not part of them. Residues count along the entry.
UniProt P31424, 21-1203: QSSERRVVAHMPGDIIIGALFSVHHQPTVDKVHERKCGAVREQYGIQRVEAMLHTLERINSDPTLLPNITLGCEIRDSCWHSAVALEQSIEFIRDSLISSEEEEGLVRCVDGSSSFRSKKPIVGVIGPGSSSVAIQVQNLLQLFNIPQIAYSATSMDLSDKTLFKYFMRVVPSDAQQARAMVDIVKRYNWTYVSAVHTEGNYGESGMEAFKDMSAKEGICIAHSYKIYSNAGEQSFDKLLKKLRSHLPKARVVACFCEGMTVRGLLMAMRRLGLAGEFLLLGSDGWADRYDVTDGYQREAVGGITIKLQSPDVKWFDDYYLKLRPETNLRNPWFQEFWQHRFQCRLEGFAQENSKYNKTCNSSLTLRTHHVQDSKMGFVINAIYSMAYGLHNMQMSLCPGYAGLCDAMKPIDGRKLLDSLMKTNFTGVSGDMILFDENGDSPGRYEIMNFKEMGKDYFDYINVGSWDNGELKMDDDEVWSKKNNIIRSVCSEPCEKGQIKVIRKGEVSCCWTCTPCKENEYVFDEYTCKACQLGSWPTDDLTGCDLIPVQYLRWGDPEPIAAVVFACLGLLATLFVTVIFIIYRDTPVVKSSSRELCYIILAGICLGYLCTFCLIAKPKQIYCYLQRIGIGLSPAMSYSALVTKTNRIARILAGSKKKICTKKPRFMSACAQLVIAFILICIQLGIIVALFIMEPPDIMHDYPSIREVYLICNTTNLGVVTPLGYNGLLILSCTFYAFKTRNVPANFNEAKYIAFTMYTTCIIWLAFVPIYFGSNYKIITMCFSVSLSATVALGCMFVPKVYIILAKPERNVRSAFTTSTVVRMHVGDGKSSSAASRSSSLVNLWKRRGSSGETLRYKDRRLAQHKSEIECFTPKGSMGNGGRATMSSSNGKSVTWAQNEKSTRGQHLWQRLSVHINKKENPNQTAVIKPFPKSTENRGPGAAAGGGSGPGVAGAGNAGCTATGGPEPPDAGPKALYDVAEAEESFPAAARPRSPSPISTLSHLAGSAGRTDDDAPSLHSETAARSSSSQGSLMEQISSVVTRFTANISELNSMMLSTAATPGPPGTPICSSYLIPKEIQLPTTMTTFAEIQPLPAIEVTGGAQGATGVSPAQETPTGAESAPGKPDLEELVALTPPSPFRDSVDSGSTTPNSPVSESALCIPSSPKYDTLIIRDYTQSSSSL

Target: rat mGluR5 receptor (Rattus norvegicus, UniProt P31424)
Assay: mGluR5 in vitro functional assay
Settings: HTS DMSO stock solution

IC50 from the HTS DMSO stock solutions (in words) | Compound
submicromolar | O=C(Nc1ccccc1O)c1cccc(N2C(=O)c3ccccc3C2=O)c1 [compound 9, 3-(phthalimidyl)-N-(2-hydroxyphenyl)benzamide]
submicromolar | O=C(Nc1ccc(Cl)c(-c2nc3ccccc3[nH]2)c1)c1ccc(Br)o1 [compound 10, N-(3-(1H-benzo[d]imidazol-2-yl)-4-chlorophenyl)-5-bromofuran-2-carboxamide]

Same assay, conditions: NAM mode; HEK293A cells expressing rat mGluR5; nearly maximal glutamate

% Glu Max [%] | Compound
1.59 | O=C(Nc1ccccc1O)c1cccc(N2C(=O)c3ccccc3C2=O)c1 [compound 9, 3-(phthalimidyl)-N-(2-hydroxyphenyl)benzamide]

Same assay, conditions: compared to 9

loss in potency [fold] | Compound
19 | O=C(Nc1cccc(O)c1)c1cccc(N2C(=O)c3ccccc3C2=O)c1 [22a]

Same assay, conditions: mGluR5 IC50, resynthesized compound

IC50 [nM] | Compound
417 | O=C(Nc1ccccc1O)c1cccc(N2C(=O)c3ccccc3C2=O)c1 [compound 9, 3-(phthalimidyl)-N-(2-hydroxyphenyl)benzamide]

Same assay, conditions: read-out: mGluR5 IC50; HTS DMSO stock solution

IC50 [nM] | Compound
77 | O=C(Nc1ccccc1O)c1cccc(N2C(=O)c3ccccc3C2=O)c1 [compound 9, 3-(phthalimidyl)-N-(2-hydroxyphenyl)benzamide]

Same assay, conditions: resynthesized compound compared to the HTS stock solution

loss in potency upon resynthesis | Compound
3 fold | COc1ccccc1C(=O)Nc1cccc(NC(=O)c2cccc(Cl)c2)c1 [compound 8]
five | O=C(Nc1ccccc1O)c1cccc(N2C(=O)c3ccccc3C2=O)c1 [compound 9, 3-(phthalimidyl)-N-(2-hydroxyphenyl)benzamide]

Same assay, conditions: resynthesized compounds

Compound | mGluR5 antagonist activity (in words)
COc1ccccc1C(=O)Nc1cccc(NC(=O)c2ccc(F)cc2)c1 [14f] | not tolerated
COc1ccccc1C(=O)Nc1cccc(NC(=O)c2ccc3c(c2)OCO3)c1 [14j] | not tolerated
COc1ccccc1C(=O)Nc1cccc(NC(=O)c2ccco2)c1 [14k] | inactive
COc1ccccc1C(=O)Nc1cccc(NC(=O)Cc2ccccc2)c1 [14l] | inactive

The next lines start with the values.

mGluR5 antagonist activity (in words) | Compound
inactive | O=C(Cc1ccccc1)Nc1cccc(NC(=O)c2cccc(Cl)c2)c1 [17k]
inactive | O=C(Nc1cccc(NC(=O)C2CC2c2ccccc2)c1)c1cccc(Cl)c1 (stereo not shown) [17l]
inactive | O=C(Nc1cccc(NC(=O)C23CC4CC(CC(C4)C2)C3)c1)c1cccc(Cl)c1 [17m]
inactive | O=C(Nc1cccc(NC(=O)C2CCCC2)c1)c1cccc(Cl)c1 [17o]
weak inhibition | CC(C)C(=O)Nc1cccc(NC(=O)c2cccc(Cl)c2)c1 [17r]
weak inhibition | CC(=O)Nc1cccc(NC(=O)c2cccc(Cl)c2)c1 [17s]
no activity | COCC(=O)Nc1cccc(NC(=O)c2cccc(Cl)c2)c1 [17t]
lost all the activity | COc1ccccc1NC(=O)c1cccc(N2C(=O)c3ccccc3C2=O)c1 [22c]
inactive | O=C(Nc1cccnc1)c1cccc(N2C(=O)c3ccccc3C2=O)c1 [22e]
partial antagonist | O=C(Nc1ccccn1)c1cccc(N2C(=O)c3ccccc3C2=O)c1 [22f]
partial antagonist | O=C(Nc1ccccc1F)c1cccc(N2C(=O)c3ccccc3C2=O)c1 [22g]
inactive | O=C(NC1CC1)c1cccc(N2C(=O)c3ccccc3C2=O)c1 [22i]
inactive | O=C(NC1CC2CCC1C2)c1cccc(N2C(=O)c3ccccc3C2=O)c1 (stereo not shown) [22j]
